# Yeast mating assay 2: variants of the scFv Ab-91

The measurements come from Engelhart et al. 2022 (doi:10.1038/s41597-022-01779-4) through the FLAb antibody collection.

Target peptide (SARS-CoV-2 spike, HR2 region): PDVDLGDISGINAS

The variants keep the light chain, the linker and the frameworks of Ab-91 (scFv order VL, a 15-residue (Gly4Ser)3 linker, VH).
VL: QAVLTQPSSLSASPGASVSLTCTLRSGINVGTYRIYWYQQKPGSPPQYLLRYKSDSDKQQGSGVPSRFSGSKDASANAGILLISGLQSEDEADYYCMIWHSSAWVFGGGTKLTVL
VH: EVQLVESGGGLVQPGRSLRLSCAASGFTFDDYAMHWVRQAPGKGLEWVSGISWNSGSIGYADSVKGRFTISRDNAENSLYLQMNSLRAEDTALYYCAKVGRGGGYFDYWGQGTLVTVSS

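The parent was found by panning a naive human phage display library on the peptide. AAYL51 was designed without a model: most single CDR substitutions and a random sample of double and triple ones. Affinity was read by AlphaSeq, a pooled yeast mating assay with surface-displayed partners. Pairs that bind mate more often; barcode pairs of the diploids are counted by sequencing. A regression on co-assayed BCL2-family reference pairs converts the normalised counts of each replicate to an apparent Kd. Mating was done three times.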

Sequences are complete VH domains.
Every variant below is changed at F106 of the VH (sequential numbering).
Values are apparent Kd, the geometric mean of the replicates that gave a signal; lower means stronger binding.
"nd" means that the variant was in the library but no mating with the target was seen in any replicate; the authors take this as a sign of poor binding, and no number exists.
Parent in this assay: reference entry 72 nM, copy in this library 7.5 nM.

* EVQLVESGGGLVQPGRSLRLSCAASGFTFDDYAMHWVRQAPGKGLEWVSGISPNSGSIGYADSVKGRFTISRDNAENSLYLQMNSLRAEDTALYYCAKVGRGGGGLDYWGQGTLVTVSS = 10 nM (3 of 3 replicates)
* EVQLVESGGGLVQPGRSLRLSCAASGFTFDDYAMHWVRQAPGKGLEWVSGISWNSQSIGYADSVKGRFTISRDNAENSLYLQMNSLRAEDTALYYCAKVGRGGGYNGYWGQGTLVTVSS = nd (0 of 3 replicates)
* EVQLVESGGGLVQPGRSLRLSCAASGFTFDDYAHHWVRQAPGKGLEWVSGISWNSGSIGKADSVKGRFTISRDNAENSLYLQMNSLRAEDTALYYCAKVGRGGGYNDYWGQGTLVTVSS = nd (0 of 3 replicates)
* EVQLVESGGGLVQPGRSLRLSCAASGFTFDDYAMHWVRQAPGKGLEWVSGISWNCKSIGYADSVKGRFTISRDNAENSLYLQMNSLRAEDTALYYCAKVGRGGGYCDYWGQGTLVTVSS = 32 µM (1 of 3 replicates)
* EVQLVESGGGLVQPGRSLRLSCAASGFTFDDYAMIWVRQAPGKGLEWVSGISWYSGSIGYADSVKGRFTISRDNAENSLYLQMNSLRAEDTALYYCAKVGRGGGYMDYWGQGTLVTVSS = 30 µM (1 of 3 replicates)
* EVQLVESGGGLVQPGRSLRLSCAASNFTFDDYAMHWVRQAPGKGLEWVSGISWNSGSIGYADKVKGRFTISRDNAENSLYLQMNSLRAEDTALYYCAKVGRGGGYTDYWGQGTLVTVSS = 130 µM (2 of 3 replicates)
* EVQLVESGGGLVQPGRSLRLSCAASGFTFDDYAMHWVRQAPGKGLEWVSGISWNSGSIGYADTVKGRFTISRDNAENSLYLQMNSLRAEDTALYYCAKVGRGGGHIDYWGQGTLVTVSS = 35 µM (2 of 3 replicates)
* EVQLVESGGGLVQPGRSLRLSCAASGFTFDDFAMHWVRQAPGKGLEWVSGISWNSGSIGYADSVKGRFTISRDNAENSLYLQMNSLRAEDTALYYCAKQGRGGGYGDYWGQGTLVTVSS = 16 µM (1 of 3 replicates)
* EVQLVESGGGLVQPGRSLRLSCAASGFTFDDYAMHWVRQAPGKGLEWVSGISWNSGSIGRADIVKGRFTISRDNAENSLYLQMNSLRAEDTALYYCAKVGRGGGYHDYWGQGTLVTVSS = nd (0 of 3 replicates)
* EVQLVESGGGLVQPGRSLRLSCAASGFTFCDYAMHWVRQAPGKGLEWVSGISWNSGSIGYADSNKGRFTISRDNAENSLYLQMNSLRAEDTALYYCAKVGRGGGYPDYWGQGTLVTVSS = 77 µM (3 of 3 replicates)
* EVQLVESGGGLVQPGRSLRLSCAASGFTFDDYDMHWVRQAPGKGLEWVSGISWNSGSIWYADSVKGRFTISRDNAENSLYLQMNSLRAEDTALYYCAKVGRGGGYSDYWGQGTLVTVSS = nd (0 of 3 replicates)
* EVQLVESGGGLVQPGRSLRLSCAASGFTFDDYAWHWVRQAPGKGLEWVSGISWNSGSIGYADSVKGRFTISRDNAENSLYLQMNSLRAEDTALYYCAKVGFGGGYYDYWGQGTLVTVSS = 70 µM (3 of 3 replicates)
* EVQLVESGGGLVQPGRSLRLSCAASGFTFDDYAMHWVRQAPGKGLEWVSGISWNSGSAGYADSVKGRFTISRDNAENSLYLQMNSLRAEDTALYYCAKVGRIGGYDDYWGQGTLVTVSS = nd (0 of 3 replicates)
* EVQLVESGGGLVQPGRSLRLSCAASGFTFDDYAMHWVRQAPGKGLEWVSGISWNSGSIGYADSVKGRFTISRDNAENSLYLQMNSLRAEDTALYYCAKVGRGGPYYDLWGQGTLVTVSS = 35 µM (3 of 3 replicates)
* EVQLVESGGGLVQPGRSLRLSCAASGFTFDDYAMHWVRQAPGKGLEWVSGISWNSGSIGYADSVKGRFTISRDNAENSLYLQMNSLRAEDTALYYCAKVGRGGKSVDYWGQGTLVTVSS = 6.8 nM (3 of 3 replicates)
* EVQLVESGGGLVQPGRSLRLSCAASGFTFDDYAMHWVRQAPGKGLEWVSGISWNSGSIGYADSVKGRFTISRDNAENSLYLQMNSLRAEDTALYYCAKVGRGGGANDTWGQGTLVTVSS = 270 µM (2 of 3 replicates)
* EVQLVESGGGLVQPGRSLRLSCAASGFTFDDYAMHWVRQAPGKGLEWVSGISWNMGSIGYADSVKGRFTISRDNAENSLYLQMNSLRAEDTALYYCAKVGRGGGYTKYWGQGTLVTVSS = 51 µM (1 of 3 replicates)
* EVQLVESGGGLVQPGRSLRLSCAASGFTFDDYAMHWVRQAPGKGLEWVSGCSWNSGSIGYADSVKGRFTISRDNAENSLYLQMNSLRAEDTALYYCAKVGRIGGYEDYWGQGTLVTVSS = 220 µM (2 of 3 replicates)
* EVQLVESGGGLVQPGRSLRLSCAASGFTFDDYAMHWVRQAPGKGLEWVSGISGNSGSIGYACSVKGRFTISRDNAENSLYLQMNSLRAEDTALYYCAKVGRGGGYTDYWGQGTLVTVSS = 980 µM (1 of 3 replicates)
* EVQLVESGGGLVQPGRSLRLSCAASGFTFDDYAMHWVRQAPGKGLEWVSGISWNSGSIGYAHSVKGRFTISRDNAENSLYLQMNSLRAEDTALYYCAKVGRGGGYPMYWGQGTLVTVSS = nd (0 of 3 replicates)

Picked from the list: the 3 lowest averages where every replicate gave a value.

VH,Kd (apparent),detected
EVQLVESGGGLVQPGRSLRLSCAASGFTFDDYAMHWVRQAPGKGLEWVSGISWNSGSIGYADSVKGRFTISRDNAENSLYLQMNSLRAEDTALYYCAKVGRGGKSVDYWGQGTLVTVSS,6.8 nM,3/3
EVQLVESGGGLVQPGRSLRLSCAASGFTFDDYAMHWVRQAPGKGLEWVSGISPNSGSIGYADSVKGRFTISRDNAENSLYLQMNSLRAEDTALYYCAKVGRGGGGLDYWGQGTLVTVSS,10 nM,3/3
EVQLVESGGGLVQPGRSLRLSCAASGFTFDDYAMHWVRQAPGKGLEWVSGISWNSGSIGYADSVKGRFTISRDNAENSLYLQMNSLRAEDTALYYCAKVGRGGPYYDLWGQGTLVTVSS,35 µM,3/3

Background: pairings of library AAYL51 with three empty control strains gave a value in 21% of cases (median 34 µM, 5th percentile 1.8 µM). Values in that range, when seen in few replicates, are hard to tell from nonspecific mating.